From PubChem
Sampled rows, rich in hits. Any-hit rate of the full collection: about 0.51%.
Integrin act MD: integrin-mediated muscular dystrophy alleviation activation; alpha7betagal myoblasts, beta-gal FDG fluorescence, 48 h; Potency, µM (series often up to 38.3 µM), most hits filed as activators; 350,000 tested, 0.064% active; note: nearly all actives have a fitted effect of over 60% in size
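alpha7betagal+/- myoblasts (passage 13, 250/well) treated 48 h at 37C with compounds at 1:260 dilution of DMSO stock. Lysed, then beta-galactosidase activity read as FDG fluorescence (ex 480/em 540) after 30 min, with pre-read for autofluorescence.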
Rango complex inh: inhibitors of Rango-importin beta complex formation; Q14974; Rango CFP/YFP FRET sensor + importin beta, 45 min; Potency, µM (doses to about 92.2 µM); 340,000 tested, 0.031% active; AID 540263; calls by dose curve; note: nearly all actives have a fitted effect of over 15% in size
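FRET biosensor Rango (snurportin 1 IBB between N-terminal EYFP and C-terminal Cerulean), 50 nM in PBS/1 mM DTT/0.02% Tween-20/0.1% BSA, preincubated 5 min RT with compound; 0.125 microM importin beta added, 45 min RT, CFP/YFP FRET ratio read.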
Mm-Cpn inhibitor: M. maripaludis TRiC chaperonin inhibition. 330,000 tested, 0.031% active. purified Mm-Cpn ATPase, ADP Transcreener TR-FRET. Potency, µM (series often up to 76.9 µM), usual class: inhibitors. AID 504842; note: nearly all actives have a fitted effect of over 80% in size
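Inhibition of chaperonin ATP hydrolysis is measured as reduced ADP production, detected by competitive TR-FRET in which signal falls with ADP. Final enzyme 25 nM and ATP 10 uM, reacted 30 min at 37°C.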
CCT chaperon mod: cytosolic chaperonin activity modulation; purified chaperonin ATPase assay, HTRF ADP detection, 30 min; activity change, % (concentration not given with the values), hits read low; 360,000 tested, 0.3% active; AID 651819; in the data active = activity change below about -30%
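TRiC at 40 or 20 nM final (batch-dependent) in 30 mM Tris pH 7.4, 100 mM KCl, 5 mM MgCl2, 1 mM DTT, with compound at single 76 uM and 10 uM ATP, 30 min at 37 deg C. ADP detected by HTRF Transcreener, 665/615 ratio.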
Rango release inh: inhibition of RanGTP-driven Rango-importin beta dissociation | Biochemical FRET Rango-importin beta, RanGTP-induced dissociation | Potency, µM (top dose mostly 46.1 µM) | 340,000 tested, 0.071% active | AID 540253; calls by dose curve; note: nearly all actives have a fitted effect of over 45% in size
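Two FRET readings bracket the reaction: one 5 min after compound meets Rango–importin beta, another 45 min after RanGTP-RCC1 (0.6 uM Ran, 0.2 uM RCC1, 2 mM GTP) is added. Only the second defines inhibition.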
A number is an active result; – = inactive; ? = inconclusive; · = no result; [ ] = dose if it differs, or a comment. Unless noted, calls come from the whole dose curve; as a rule, active = well fitted curve in the direction sought with a large enough effect; inconclusive = small, poorly fitted or top-dose-only effect, or another doubt; inactive = no such curve, though single readings can be large; an effect the other way counts as inactive or inconclusive.

SMILES	Integrin act MD	Rango complex inh	Mm-Cpn inhibitor	CCT chaperon mod	Rango release inh
Oc1ccc(COC2CCCC2)c2cccnc12	·	·	–	·	·
Cc1c(C(=O)Nc2ccc(S(=O)(=O)Nc3ncccn3)cc2)oc2ccc(Cl)cc12	–	–	–	-34	–
O=C(NCCN1CCC(n2c(=O)[nH]c3ccccc32)CC1)c1ccc(Cl)c(Cl)c1	·	·	·	–	·
Oc1ccc(COc2cccc3ccccc23)c2cccnc12	·	·	–	·	·
Cc1cc(C)nc(SCNC(=O)c2ccc(F)cc2)n1	–	–	–	-32	–
COc1ccc(Cn2cc(CN3CC(N4CCN(CCN(C)C)CC4)CS3(=O)=O)nn2)cc1 (stereo not drawn)	·	·	·	–	·
COc1cc2c(cc1OC)C1O[C@](CCCCN3C(=O)c4ccccc4C3=O)(C2)OC2=C1C(=O)CCC2	·	·	–[15.4 µM]	·	·
Nc1ccn([C@@H]2O[C@H](C(=O)N3CCCN(Cc4ccccc4F)CC3)[C@@H](O)[C@H]2O)c(=O)n1	·	·	·	–	·
Cc1cc2c(s1)c(C#N)c(C(=O)NCc1ccccc1F)n2C	·	·	–	·	·
Cc1ccc(/C=C/C(=O)c2ccccc(=O)c2O)cc1C	–	?	–	–	8.2µM
O=C(/C=C/c1ccccc1)c1cc(Br)ccc(=O)c1O	–	–	?	–	–
COC(=O)c1sccc1NC(=O)CNC(=O)c1ccccc1	–	–	–	-76	–
Cc1cc2c(cc1S(=O)(=O)Nc1ccc(C(C)C)cc1)OCCN2C	·	·	–	·	·
CC(C)(C)c1ccc(C(=O)N2CCC2(C)C(=O)NS(=O)(=O)c2ccc(C#N)cc2)cc1 (stereo not drawn)	·	·	·	–	·
CCN(CC)C1CCN(C(=O)c2ccc3nc(Cc4ccc(OC)cc4)oc3c2)C1 (stereo not drawn)	–	?	–	-68	–
CCOC(=O)c1cc2c(c(-c3cccc(C#Cc4ccc(OC)c(OC)c4)c3)n1)[C@@H](CCO)N(S(=O)C(C)(C)C)C2 (stereo partly drawn)	·	·	·	–	·
C=CCn1c(SCC(=O)O)nnc1-c1ccc(C(C)(C)C)cc1	–	–	–	-31	–
Cc1ccc2c(CN3CCN(c4ccc(Cl)c(Cl)c4)CC3)cc(=O)oc2c1	·	·	·	–	·
COc1cc(COC(=O)c2cnc(C)cn2)c(OC)cc1Br	–	–	–	-52	–
COc1ccc2[nH]c3c4c(ccc3c2c1)C(=O)C=CC4=O	–	?	–	–	4.6µM
COc1ccc2[nH]c(=O)cc(C(=O)O)c2c1	–	–	–	–	–
O=S(=O)(c1ccc2c(c1)OCCO2)C1CCC(O)CC1 (stereo not drawn)	·	·	–	·	·
Cc1ccc(NC(=O)C2(C)CCN2C(=O)Cc2ccc(C(C)(C)C)cc2)cc1C (stereo not drawn)	·	·	·	–	·
Cc1cc(O)ccc1C1(c2ccc(O)cc2C)OC(=O)c2ccccc21	–	–	–	–	–
O=C1OC2(c3ccccc31)c1cc(I)c(O)c(I)c1Oc1c2cc(I)c(O)c1I	·	·	32µM	·	·
SMILES	Integrin act MD	Rango complex inh	Mm-Cpn inhibitor	CCT chaperon mod	Rango release inh
COc1cccc(-c2cnc3c(NC(C)=O)cc(-c4cccc(C(=O)NCCO)c4)cn23)c1	·	·	·	–	·
Cc1cccc(NC(=O)CSc2nc(-c3ccco3)nc3cc(=O)[nH]n23)c1	·	·	–	·	·
CS(=O)(=O)c1cccc(C(=O)OCCCC(=O)c2ccccc2)c1	–	–	–	–	–
CN(C)c1cccc(C(=O)OCCCC(=O)c2ccc(F)cc2)c1	–	–	–	-38	–
O=C(NCC1CCN(Cc2ccccc2)CC1)[C@H]1O[C@@H](n2ccc(=O)[nH]c2=O)[C@H](O)[C@@H]1O	·	·	·	–	·
CCN(C(=O)CN1C(=O)NC2(CCc3ccccc32)C1=O)C1CCS(=O)(=O)C1 (stereo not drawn)	–	–	–	-34	–
O=C(Nc1cccc2ccccc12)c1csc([C@@H]2O[C@H](CO)[C@H](O)[C@H](O)[C@H]2O)n1	·	·	·	–	·
COc1ccc(C(O)c2nc(-c3ccc4ccccc4c3)cs2)cc1 (stereo not drawn)	·	·	·	–	·
O=C(O)c1cc(N=Cc2c(O)c3ccccc3oc2=O)ccc1O	7.1µM	?	–	–	?
O=C1/C(=C/C=C/c2ccco2)SC(=S)N1c1ccc(O)cc1	–	–	–	–	–
CC(C)C(C(=O)O)N1C(=O)/C(=C/C=C/c2ccco2)SC1=S (stereo not drawn)	–	?	–	–	0.0052µM
COCCNC(=O)C1(C)CCN(C(=O)c2cc(C(C)(C)C)nn2C)C1 (stereo not drawn)	·	·	·	–	·
COC(=O)c1ccc(Nc2cc(C)nc3ccc(C)cc23)cc1	–	?	–	-39	–
CCOC(=O)C1C(=O)CC(C)(O)C(C(=O)OCC)C1c1ccccc1 (stereo not drawn)	–	–	–	–	–
CCOC(=O)C1C(=O)CC(C)(O)C(C(=O)OCC)C1c1ccc(OC)cc1 (stereo not drawn)	–	–	·	-32	–
Cc1ccc2c(c1C)-c1c(ccc(C)c1C)C(=O)C2=O	–	29µM	·	–	–
CC(C)CN1CCC1(C)C(=O)Nc1cccc(C#N)c1 (stereo not drawn)	·	·	·	–	·
NC(=O)CC(NC(=O)Cc1ccc(Br)cc1)c1ccc(NC2CCN(Cc3ccccc3)CC2)c([N+](=O)[O-])c1 (stereo not drawn)	–	52µM	–	–	–
COc1ccc(-n2c3c(cc(C#N)c2=O)C(=O)CCC3)cc1	–	–	–	-34	–
O=C(CN1CCN(Cc2ccccc2)CC1)N/N=C/c1cccnc1	–	–	–	-36	–
Cc1ccccc1NC(=O)c1c(C)nn(-c2ccccc2)c1Cl	–	–	–	-40	–
Cc1cc(C)n2c(SCC(=O)NC3CCCCC3C)nnc2n1 (stereo not drawn)	–	–	–	–	–
CCC1CCCCN1C(=O)CSc1nnc2nc(C)cc(C)n12 (stereo not drawn)	–	–	–	-40	–
O=C(O)c1ccc2c(c1)C(=O)N([C@H](Cc1ccccc1)C(=O)O)C2=O	·	·	–	·	·
O=C(O)c1ccc(S(=O)(=O)N[C@H](Cc2ccc([N+](=O)[O-])cc2)C(=O)O)cc1	·	·	–	·	·
SMILES	Integrin act MD	Rango complex inh	Mm-Cpn inhibitor	CCT chaperon mod	Rango release inh
Cc1cccc2nc(CNC(=O)CC3C(=O)NCCN3Cc3cccc(F)c3)cn12 (stereo not drawn)	?	–	–	-43	–
O=C(CC1C(=O)NCCN1Cc1cccc(F)c1)NC1CCCCCC1 (stereo not drawn)	–	?	–	–	–
CCN(CC)c1ccc(/C=C/c2cc(-c3ccccc3)c3ccccc3n2)cc1	–	–	35µM	–	–
CN(C)c1ccc(/C=C/c2ccc3ccccc3n2)cc1	–	?	–	–	?
C[C@@H]1Cn2cnc(C(=O)NCC(=O)OC(C)(C)C)c2C(=O)N1	–	·	·	–	·
CC(C)(C)OC(=O)CC12CCCCC1NC(=O)O2 (stereo not drawn)	–	–	–	-49	–
